{
  "sequences": {"note": "By UniProt entry, the sequences of proteins in these tests, tags left out. Residues count along the entry.", "UniProt Q08499, 303-809, stated change not applied": "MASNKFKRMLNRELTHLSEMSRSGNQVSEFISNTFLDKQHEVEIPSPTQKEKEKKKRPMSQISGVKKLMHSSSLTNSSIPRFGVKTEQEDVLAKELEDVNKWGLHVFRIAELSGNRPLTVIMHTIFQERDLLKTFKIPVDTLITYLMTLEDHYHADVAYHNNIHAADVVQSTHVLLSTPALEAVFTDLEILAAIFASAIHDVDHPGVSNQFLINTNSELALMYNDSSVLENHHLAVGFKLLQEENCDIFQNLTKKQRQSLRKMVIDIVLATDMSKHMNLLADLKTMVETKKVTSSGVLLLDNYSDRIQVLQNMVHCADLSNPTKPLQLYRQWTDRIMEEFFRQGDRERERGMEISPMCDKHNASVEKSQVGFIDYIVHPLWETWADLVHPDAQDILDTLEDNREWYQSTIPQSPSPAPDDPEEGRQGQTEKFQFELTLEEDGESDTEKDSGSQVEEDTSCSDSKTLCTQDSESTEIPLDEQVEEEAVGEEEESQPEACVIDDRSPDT"},
  "source": "patent US20250263426A1",
  "about": "“PDE4B INHIBITOR AND USE THEREOF” (Xizang Haisco Pharmaceutical Co., Ltd., priority 2022, published 2025)",
  "key": {"[1]": {"system": "human peripheral blood mononuclear cells (TNF-α release)", "experiment": "Inhibition of LPS-induced TNF-α release from human peripheral blood mononuclear cells in vitro", "format": "cell-based", "conditions": "hPBMC, 100 ng/mL LPS, 4 h", "experimental": "5. Detection of Inhibitory Activity of Compounds on the Release of Tumor Necrosis Factor-α (TNF-α) from Human Peripheral Blood Mononuclear Cells Induced by Lipopolysaccharide (LPS) In Vitro\nNormal human peripheral blood which was anticoagulated (citric acid anticoagulation) was collected, and hPBMCs were prepared by Ficoll-Paque PLUS (Cytiva, Cat #17144002, density 1.077 g/mL). The concentration of hPBMC cells was adjusted to 0.25×10^6 cells/mL with RPMI1640 medium and inoculated into a 96-well plate in an amount of 50000 cells per well. Subsequently, different concentrations of drugs were added for pre-incubation for 1 h (the DMSO final concentration was 0.1%, and the positive and negative control wells had the same volume of RPMI1640 containing 0.1% DMSO). After the pre-incubation was complete, 100 ng/mL LPS (SIGMA, L2630) was added to the compound and positive control wells, and the negative control well had the same volume of RPMI1640 containing 0.1% DMSO. Incubation was carried out for 4 h in an incubator at 37° C. and 5% CO2. The cell supernatant was collected, and the content of TNF-α in the supernatant sample was detected by human TNF-α Elisa quantitative test kit (Sino Biological, Cat #KIT10602). The IC50 value was calculated using GraphPad Prism software."}, "[2]": {"target": "PDE4D2 (Homo sapiens (Human), UniProt Q08499)", "experiment": "Effect of compounds on PDE4D2 activity (fluorescence polarization kit)", "format": "biochemical", "experimental": "FP was usually represented by mP value.\n[formula] • I∥ (S520): fluorescence intensity in parallel direction • I⊥ (P520): fluorescence intensity in perpendicular direction • G: G factor=1\n[formula] • mP(sample): mP of the test compound in a reaction well • mP(negative control): mP in the negative control well • mP(positive control): mP in the positive control well\nAccording to the calculated inhibition rate at each concentration, the IC50 value of each compound was calculated by GraphPad Prism 8 software."}},
  "note": "pIC50: −log10 of the molar value.",
  "data": [
    {"smiles": "COC(=O)NCC1(Nc2nc(N3C[C@H]4CN(c5ccc6c(c5)CC6)C[C@H]4C3)nc3c2[S+]([O-])CC3)CCC1", "note": "(stereo partly drawn) [Compound 82-2]", "values": [
      {"measurement": "Max inhibition (%)", "setting": "[1]", "value": 73.50, "unit": "%"},
      {"measurement": "pIC50", "setting": "[1]; relative IC50, read-out: Re IC50", "value": "7.30 to 8.00"},
      {"measurement": "pIC50", "setting": "[2]", "value": "7.30 to 8.00"}
    ]}
  ]
}
